For this assay, the target named is Mu-type opioid receptor (Bos taurus) (UniProt P79350). Put plainly: Evaluation for the ability of mu opioid to protect the [3H]DAMGO binding site from alkylation.

By UniProt entry, the sequences of proteins in these tests, tags left out.
UniProt P79350, whole entry, looked up: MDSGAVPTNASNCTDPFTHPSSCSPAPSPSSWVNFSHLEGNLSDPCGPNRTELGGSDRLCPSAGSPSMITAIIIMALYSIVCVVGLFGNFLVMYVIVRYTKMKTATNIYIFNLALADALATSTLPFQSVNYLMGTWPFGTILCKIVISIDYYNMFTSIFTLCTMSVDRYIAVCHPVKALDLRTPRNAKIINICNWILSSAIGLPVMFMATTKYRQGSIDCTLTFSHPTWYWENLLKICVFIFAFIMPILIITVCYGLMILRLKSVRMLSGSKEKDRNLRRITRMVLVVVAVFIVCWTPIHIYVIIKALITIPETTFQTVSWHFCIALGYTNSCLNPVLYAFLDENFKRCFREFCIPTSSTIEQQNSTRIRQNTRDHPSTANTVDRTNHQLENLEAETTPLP

The compound `CN(C(=O)Cc1ccc(Cl)c(Cl)c1)C1CCCCC1N1CCCC1` (stereo unspecified) gave an Activity of 24.

For the origin of these results see ChEMBL document CHEMBL1127738, “14 alpha,14' beta-[Dithiobis[(2-oxo-2,1-ethanediyl)imino]]bis (7,8-dihydromorphinone) and 14 alpha,14' beta-[dithiobis[(2-oxo-2,1- ethanediyl)imino]]bis[7,8-dihydro-N-(cyclopropylmethyl)normorphinone]: chemistry and opioid binding properties” (J Med Chem, 1994).
